Measurements reported in patent US9676793B2, “Co-crystals of 5-amino-2-oxothiazolo[4,5-d]pyrimidin-3(2H)-yl-5-hydroxymethyl tetrahydrofuran-3-yl acetate and methods for preparing and using the same” (Hoffmann-La Roche Inc., priority 2014, dated 2017).
Read-outs that look alike come from different tables or passages of the source.

Tested on: HBV
Conditions: for EC50: HBV infected HepaRG cell assay

Substance | % inhibition ± SD, HBV DNA (n = 4) (55.6 pM) [% inhibition] | % inhibition ± SD, HBsAg (n = 4) (55.6 pM) [% inhibition] | % inhibition ± SD, HBV DNA (n = 4) (166.7 pM) [% inhibition] | % inhibition ± SD, HBsAg (n = 4) (166.7 pM) [% inhibition] | % inhibition ± SD, HBV DNA (n = 4) (500 pM) [% inhibition] | % inhibition ± SD, HBsAg (n = 4) (500 pM) [% inhibition] | EC50 (read-out: EC50 against HBV DNA secretion) [nM] | EC50 (read-out: EC50 against secretion of HBsAg) [nM]
Pegasys: pegylated interferon-alpha 2a, positive control [reference compound] | 56.5 ± 17.2 | 25.9 ± 4.2 | 67.1 ± 20.3 | 33.1 ± 10.3 | 76.9 | 46.0 |  | 
Roferon-A: IFN-alpha 2a [reference compound] |  |  |  |  |  |  | 0.001 ± 0.0003 | 0.033 ± 0.022
